# Values quoted from earlier work in US6767992B1, “Method for producing L-prolyl-L-M-sarcolysyl-L-p-fluorophenylalanine and derivatives thereof” (PTC Pharma AG, priority 2001, dated 2004).
# Tested on: melanoma cells
substance,measurement,value
L-prolyl-L-m-sarcolysyl-L-p-fluorophenylalanine [PSF],cytotoxicity compared with peptichemio itself,considerably higher cytotoxicity
